{
  "source": "patent US8252895B2",
  "about": "“Cyclic peptide compounds” (Astellas Pharma Inc., priority 2005, dated 2012)",
  "origin": "cited, not measured here",
  "tested_on": "HCV",
  "details": "M. Berenguer et al., J. Hepatol 32, 673-684 (2000); cited from earlier work",
  "data": [
    {"substance": "Cyclosporin A", "values": [
      {"measurement": "effect on HCV in transplant patients", "result": "caused HCV to multiply in transplant patients"}
    ]}
  ]
}
